From PubChem BioAssay AID651965 (National Center for Advancing Translational Sciences (NCATS), 2013)
This is a selection; strong and weak results do not stand in their true shares. Inconclusive results are not listed. Calls of active or inactive are those of the source. Calls follow the shape of the dose curve; as a rule, active = well fitted falling curve with a large enough effect; inconclusive = small, poorly fitted or top-dose-only effect; inactive = no such curve, though single readings can be large or run the other way.

By UniProt entry, the sequences of proteins in these tests, tags left out.
UniProt P80244, whole entry: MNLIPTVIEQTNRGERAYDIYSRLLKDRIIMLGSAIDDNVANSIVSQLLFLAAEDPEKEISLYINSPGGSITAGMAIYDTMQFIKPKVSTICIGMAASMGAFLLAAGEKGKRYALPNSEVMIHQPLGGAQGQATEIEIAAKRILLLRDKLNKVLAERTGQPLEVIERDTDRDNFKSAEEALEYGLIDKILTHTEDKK

These molecules were tested against ATP-dependent Clp protease proteolytic subunit (Bacillus subtilis (strain 168)) (UniProt P80244) (assay: qHTS Assay for Activators of ClpP). Conditions: purified B. subtilis ClpP, FRET peptide cleavage, 20 min; at 57.5 µM (top of the series).
Also: the source files actives as falling curves though it sought activators and does not explain the sign; nearly all actives have a fitted effect of over 65% in size.

SMILES	activity change, negative = active
CCC(=O)N(c1ccccc1)C1(COC)CCN(CCc2cccs2)CC1	inactive: 0.927%
CCC(=O)N(c1ccccc1)C1(COC)CCN(CCn2nnn(CC)c2=O)CC1	inactive: -1.47%
